The data set in a line: cysteine trapping assay ([35S]cysteine, HPLC with radiomatic detector) for reactive metabolites. Particulars: human liver microsome 2 mg/mL, L-[35S]-Cysteine, NADPH, 37 °C, 2 h. For orientation: Microsomes from liver hold many membrane-bound enzymes, among them those of drug oxidation.

As for `Cc1cc2c(s1)Nc1ccccc1N=C2N1CCN(C)CC1` [Olanzapine], the RI integrated area is 4161.2 count.

(Values after paper PMC11117661, “Development of a Novel In Silico Classification Model to Assess Reactive Metabolite Formation in the Cysteine Trapping Assay and Investigation of Important Substructures” (Biomolecules, 2024).)
